Membrane permeability of cyclic peptides

PAMPA is the parallel artificial membrane permeability assay, which has no cells and reads passive diffusion. Permeability is given as log10 of P in cm/s; higher (less negative) is more permeable.

SMILES,PAMPA (log10 cm/s)
CCCC[C@@H]1NC(=O)[C@@H](CC(C)C)NC(=O)CN(CC2CCCCC2)C(=O)[C@H](Cc2ccccc2)NC(=O)CN(CCCOC(C)C)C(=O)[C@H]2CCCN2C1=O,-4.97
CCCC[C@@H]1NC(=O)[C@@H](CC(C)C)NC(=O)CN(CC2CCOCC2)C(=O)[C@H](C)NC(=O)CN(CCCOC(C)C)C(=O)[C@H]2CCCN2C1=O,-6.75
CCCCCN1CC(=O)N[C@@H](CC(C)C)C(=O)N[C@@H](CCCC)C(=O)N2CCC[C@@H]2C(=O)N(CCCOC(C)C)CC(=O)N[C@H](C)C1=O,-5.97
CCCCCN1CC(=O)N[C@@H](CC(C)C)C(=O)N[C@@H](CCCC)C(=O)N2CCC[C@@H]2C(=O)N(Cc2ccc3c(c2)OCO3)CC(=O)N[C@H](C)C1=O,-5.67
CCCC[C@@H]1NC(=O)[C@@H](CC(C)C)NC(=O)CN(CC2CCOCC2)C(=O)[C@@H](C)NC(=O)CN(Cc2ccc3c(c2)OCO3)C(=O)[C@H]2CCCN2C1=O,-5.89
CCCC[C@@H]1NC(=O)[C@@H](CC(C)C)NC(=O)CN(CC2CCOCC2)C(=O)[C@H](C)NC(=O)CN(CC)C(=O)[C@@H]2CCCN2C1=O,-7.48
CCCC[C@@H]1NC(=O)[C@@H](CC(C)C)N(C)C(=O)CN(CC2CCOCC2)C(=O)[C@H](Cc2ccccc2)NC(=O)CN(CC)C(=O)[C@@H]2CCCN2C1=O,-5.46
CCCC[C@@H]1NC(=O)[C@@H](CC(C)C)NC(=O)CN(CC2CCCCC2)C(=O)[C@H](C)NC(=O)CN(Cc2ccc3c(c2)OCO3)C(=O)[C@H]2CCCN2C1=O,-4.90
CCCC[C@@H]1NC(=O)[C@@H](CC(C)C)NC(=O)CN(CC2CCCCC2)C(=O)[C@H](C)NC(=O)CN(CC)C(=O)[C@@H]2CCCN2C1=O,-5.90
CCCCCN1CC(=O)N(C)[C@H](CC(C)C)C(=O)N[C@@H](CCCC)C(=O)N2CCC[C@H]2C(=O)N(CCCOC(C)C)CC(=O)N[C@H](C)C1=O,-5.72
CCCC[C@@H]1NC(=O)[C@@H](CC(C)C)N(C)C(=O)CN(CC2CCOCC2)C(=O)[C@@H](Cc2ccccc2)NC(=O)CN(Cc2ccc3c(c2)OCO3)C(=O)[C@@H]2CCCN2C1=O,-5.43
CCCC[C@@H]1NC(=O)[C@@H](CC(C)C)NC(=O)CN(CC2CCOCC2)C(=O)[C@H](Cc2ccccc2)NC(=O)CN(CC)C(=O)[C@@H]2CCCN2C1=O,-6.04
CCCCCN1CC(=O)N(C)[C@@H](CC(C)C)C(=O)N[C@@H](CCCC)C(=O)N2CCC[C@H]2C(=O)N(CCCOC(C)C)CC(=O)N[C@H](Cc2ccccc2)C1=O,-5.09
CCCCCN1CC(=O)N[C@@H](CC(C)C)C(=O)N[C@@H](CCCC)C(=O)N2CCC[C@H]2C(=O)N(Cc2ccc3c(c2)OCO3)CC(=O)N[C@H](C)C1=O,-5.68
CCCCCN1CC(=O)N[C@H](CC(C)C)C(=O)N[C@@H](CCCC)C(=O)N2CCC[C@H]2C(=O)N(Cc2ccc3c(c2)OCO3)CC(=O)N[C@@H](Cc2ccccc2)C1=O,-5.26
CCCCCN1CC(=O)N(C)[C@@H](CC(C)C)C(=O)N[C@@H](CCCC)C(=O)N2CCC[C@@H]2C(=O)N(Cc2ccc3c(c2)OCO3)CC(=O)N[C@H](C)C1=O,-5.45
CCCC[C@@H]1NC(=O)[C@H](CC(C)C)N(C)C(=O)CN(CC2CCOCC2)C(=O)[C@H](C)NC(=O)CN(CC)C(=O)[C@@H]2CCCN2C1=O,-7.17

Repeated from above, the 2 entries with the highest PAMPA:

SMILES	PAMPA (log10 cm/s)
CCCC[C@@H]1NC(=O)[C@@H](CC(C)C)NC(=O)CN(CC2CCCCC2)C(=O)[C@H](C)NC(=O)CN(Cc2ccc3c(c2)OCO3)C(=O)[C@H]2CCCN2C1=O	-4.90
CCCC[C@@H]1NC(=O)[C@@H](CC(C)C)NC(=O)CN(CC2CCCCC2)C(=O)[C@H](Cc2ccccc2)NC(=O)CN(CCCOC(C)C)C(=O)[C@H]2CCCN2C1=O	-4.97

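The data file gives no further conditions (lipid, pH, time, direction or concentration), and values from different papers need not be comparable. Other peptides of the study may be missing here. Peptides that the database sets to -10, its floor, are left out.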

Values of Furukawa et al. 2016, doi:10.1021/acs.jmedchem.6b01246, as listed in CycPeptMPDB.